Data taken from patent publication US20230000774A1, “METHODS AND COMPOSITIONS PRODUCED THEREBY” (Albumedix Limited, priority 2019, published 2023).

How the values were obtained:
[1] = rHA SEC analysis pre and post filtration through 1.2 μm filter; type: physicochemical
Procedure: Size exclusion chromatography was performed on an Agilent 1100 series HPLC employing a TsK gel G3000SWXL (300×7.8 mm I.d., 5 μm) column, an isocratic flow of phosphate buffer (pH 7) at 1 mL/min with UV detection at 210 nm.
HPLC analysis of the AP1903 and SEC analysis of the rHA was undertaken on a sample of the formulation dissolved in D5W before and after filtration through a 1.2 μm filter. […] The remainder of the rHA being higher order structures.

[2] = Stability study 1: HPLC-SEC rHA monomer levels in spray-dried powders at 40° C.; type: physicochemical; details: liquid, stabiliser N/A, 0 weeks
Procedure: The spray dried powders were tested for their stability at 40° C. with monomer levels measured by HPLC size exclusion (HPLC-SEC).

[3] = formulation dissolved in D5W, 1.2 μm filter

Substance | rHA Dimer, Pre-filtration ([1]; formulation dissolved in D5W) | rHA Monomer, Pre-filtration ([1]; formulation dissolved in D5W) | rHA Dimer, Post 1.2 filtration [1, 3] | rHA Monomer, Post 1.2 filtration [1, 3] | rHA Dimer, Stock ([1]; stock rHA solution) | rHA Monomer, Stock ([1]; stock rHA solution) | rHA monomer level (HPLC-SEC) [2]
rHA: recombinant human albumin, Albumedix | 17% | 81% | 17% | 81% | 3% | 97% | 
Liquid: AlbIX recombinant human albumin, liquid, not spray dried |  |  |  |  |  |  | 96.5
